PubChem BioAssay (NCI)
Several values for one entry are separate records, joined by “and”; a condition that tells them apart may be missing. Equal values may be shown once.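 Five concentrations, 48 hours, 96-well plates. At the GI50, growth is halved. TGI denotes the concentration required for complete inhibition of growth.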

What was measured:
Assay in all cases: NCI tumour cell line growth inhibition, 48 h
UO-31 renal = tested on: UO-31 renal
SNB-19 CNS = tested on: SNB-19 CNS
BT-549 breast = tested on: BT-549 breast
LXFL 529 NSCLC = tested on: LXFL 529 NSCLC
OVCAR-4 ovarian = tested on: OVCAR-4 ovarian
NCI-H322M lung = tested on: NCI-H322M lung
SK-MEL-5 melanoma = tested on: SK-MEL-5 melanoma
NCI/ADR-RES ovarian = tested on: NCI/ADR-RES ovarian
IGROV1 ovarian = tested on: IGROV1 ovarian
A549 NSCLC = tested on: A549 NSCLC
RXF 393 renal = tested on: RXF 393 renal
M14 melanoma = tested on: M14 melanoma
CCRF-CEM leukemia = tested on: CCRF-CEM leukemia
M19-MEL melanoma = tested on: M19-MEL melanoma
MDA-MB-435 = tested on: MDA-MB-435
A498 renal = tested on: A498 renal
HT29 colon = tested on: HT29 colon
OVCAR-5 ovarian = tested on: OVCAR-5 ovarian
MDA-MB-231 breast = tested on: MDA-MB-231 breast
TK-10 renal = tested on: TK-10 renal
UACC-62 melanoma = tested on: UACC-62 melanoma
UACC-257 melanoma = tested on: UACC-257 melanoma
SK-OV-3 ovarian = tested on: SK-OV-3 ovarian
EKVX NSCLC = tested on: EKVX NSCLC
OVCAR-8 ovarian = tested on: OVCAR-8 ovarian
SF-268 CNS = tested on: SF-268 CNS
HS 578T breast = tested on: HS 578T breast
SK-MEL-28 melanoma = tested on: SK-MEL-28 melanoma
DU-145 prostate = tested on: DU-145 prostate
COLO 205 colon = tested on: COLO 205 colon
LOX IMVI melanoma = tested on: LOX IMVI melanoma
SR leukemia = tested on: SR leukemia
RPMI-8226 leukemia = tested on: RPMI-8226 leukemia
PC-3 prostate = tested on: PC-3 prostate
OVCAR-3 ovarian = tested on: OVCAR-3 ovarian
SW-620 colon = tested on: SW-620 colon
NCI-H522 lung = tested on: NCI-H522 lung
SF-295 CNS = tested on: SF-295 CNS
U251 CNS = tested on: U251 CNS
MCF7 breast = tested on: MCF7 breast
HOP-62 NSCLC = tested on: HOP-62 NSCLC

`CN(CCCl)CCCl` gave a GI50 (UO-31 renal) of 8.5 µM, a TGI (UO-31 renal) of 30.9 µM and a GI50 (SNB-19 CNS) of 17.4 µM. For the same compound, the TGI (SNB-19 CNS) was 86.9 µM, the GI50 (BT-549 breast) was 10.5 µM and 11.7 µM and the TGI (BT-549 breast) was 30.7 µM and 24.2 µM. The GI50 (LXFL 529 NSCLC) was 6.52 µM, the TGI (LXFL 529 NSCLC) was 17.2 µM and the GI50 (OVCAR-4 ovarian) was 9.97 µM and 18.4 µM. The TGI (OVCAR-4 ovarian) was 43.6 µM and 25.9 µM, the GI50 (NCI-H322M lung) was 6.82 µM and 18.3 µM and the TGI (NCI-H322M lung) was 32.2 µM and 37.1 µM. It also gave a GI50 (SK-MEL-5 melanoma) of 1.88 µM, a TGI (SK-MEL-5 melanoma) of 10.8 µM and a GI50 (NCI/ADR-RES ovarian) of 3.33 µM. The TGI (NCI/ADR-RES ovarian) was 18.5 µM, the GI50 (IGROV1 ovarian) was 5.18 µM and 4.94 µM and the TGI (IGROV1 ovarian) was 23.2 µM and 20.3 µM. For the same compound, the GI50 (A549 NSCLC) was 1.83 µM, the TGI (A549 NSCLC) was 36.6 µM and the GI50 (RXF 393 renal) was 5.46 µM. For the same compound, the TGI (RXF 393 renal) was 14.2 µM, the GI50 (M14 melanoma) was 3.76 µM and 7.91 µM and 4.96 µM and the TGI (M14 melanoma) was 17.9 µM and 27.2 µM and 31.9 µM. It also gave a GI50 (CCRF-CEM leukemia) of 0.22 µM, a TGI (CCRF-CEM leukemia) of 14.9 µM and a GI50 (M19-MEL melanoma) of 8.05 µM. For the same compound, the TGI (M19-MEL melanoma) was 35.8 µM, the GI50 (MDA-MB-435) was 12.4 µM and 7.68 µM and the TGI (MDA-MB-435) was 26.9 µM and 18.3 µM. The GI50 (A498 renal) was 2.31 µM and 5.98 µM, the TGI (A498 renal) was 13.1 µM and 18.3 µM and the GI50 (HT29 colon) was 1.9 µM and 4.26 µM and 8.46 µM. For the same compound, the TGI (HT29 colon) was 11.7 µM and 22.9 µM and 22.2 µM, the GI50 (OVCAR-5 ovarian) was 12.9 µM and 24.1 µM and the TGI (OVCAR-5 ovarian) was 27.9 µM and 41.4 µM. The GI50 (MDA-MB-231 breast) was 15.9 µM and 22.5 µM and 8.38 µM, the TGI (MDA-MB-231 breast) was 58.8 µM and 49.2 µM and 34.7 µM and the GI50 (TK-10 renal) was 11.3 µM and 3.72 µM. The TGI (TK-10 renal) was 32.2 µM and 10.9 µM, the GI50 (UACC-62 melanoma) was 2.5 µM and 8.45 µM and 2.36 µM and the TGI (UACC-62 melanoma) was 16.6 µM and 25.2 µM and 14.2 µM. For the same compound, the GI50 (UACC-257 melanoma) was 3.53 µM and 11.6 µM, the TGI (UACC-257 melanoma) was 18.3 µM and 23.8 µM and the GI50 (SK-OV-3 ovarian) was 7.93 µM. For the same compound, the TGI (SK-OV-3 ovarian) was 30.7 µM, the GI50 (EKVX NSCLC) was 6 µM and 5.07 µM and 10.5 µM and the TGI (EKVX NSCLC) was 20.5 µM and 12.9 µM and 16.7 µM. The GI50 (OVCAR-8 ovarian) was 11.9 µM, the TGI (OVCAR-8 ovarian) was 97.1 µM and the GI50 (SF-268 CNS) was 2.54 µM. For the same compound, the TGI (SF-268 CNS) was 32.3 µM, the GI50 (HS 578T breast) was 44.6 µM and the TGI (HS 578T breast) was > 100 µM. The GI50 (SK-MEL-28 melanoma) was 9.22 µM and 11.7 µM and 20.3 µM, the TGI (SK-MEL-28 melanoma) was 29.8 µM and 29 µM and 63.6 µM and the GI50 (DU-145 prostate) was 1.65 µM. The TGI (DU-145 prostate) was 12.9 µM, the GI50 (COLO 205 colon) was 3.87 µM and the TGI (COLO 205 colon) was 12.7 µM. For the same compound, the GI50 (LOX IMVI melanoma) was 1.03 µM and 2.23 µM, the TGI (LOX IMVI melanoma) was 11.3 µM and 20.8 µM and the GI50 (SR leukemia) was 0.148 µM. The TGI (SR leukemia) was 10.6 µM, the GI50 (RPMI-8226 leukemia) was 2.19 µM and the TGI (RPMI-8226 leukemia) was 25.2 µM. For the same compound, the GI50 (PC-3 prostate) was 3.48 µM and 12.9 µM, the TGI (PC-3 prostate) was 16.7 µM and 25.9 µM and the GI50 (OVCAR-3 ovarian) was 11.2 µM. The TGI (OVCAR-3 ovarian) was 19.2 µM, the GI50 (SW-620 colon) was 1.4 µM and 5.98 µM and the TGI (SW-620 colon) was 10.8 µM and 23.2 µM. The GI50 (NCI-H522 lung) was 3.23 µM, the TGI (NCI-H522 lung) was 5.4 µM and the GI50 (SF-295 CNS) was 2.53 µM and 3.23 µM. The TGI (SF-295 CNS) was 11.7 µM and 40.1 µM, the GI50 (U251 CNS) was 4.53 µM and 2.85 µM and 9.09 µM and the TGI (U251 CNS) was 35.7 µM and 25.3 µM. The GI50 (MCF7 breast) was 1.75 µM, the TGI (MCF7 breast) was 20.3 µM and the GI50 (HOP-62 NSCLC) was 4.95 µM. For the same compound, the TGI (HOP-62 NSCLC) was 29.8 µM.
